Values of other authors in US20170107257A1, “CYCLIC APELIN ANALOGS” (LANTHIOPEP B.V., priority 2014, published 2017).

Biological target: T1, hAPJ (Homo sapiens, UniProt P35414)
T1 sequence (P35414 1-380): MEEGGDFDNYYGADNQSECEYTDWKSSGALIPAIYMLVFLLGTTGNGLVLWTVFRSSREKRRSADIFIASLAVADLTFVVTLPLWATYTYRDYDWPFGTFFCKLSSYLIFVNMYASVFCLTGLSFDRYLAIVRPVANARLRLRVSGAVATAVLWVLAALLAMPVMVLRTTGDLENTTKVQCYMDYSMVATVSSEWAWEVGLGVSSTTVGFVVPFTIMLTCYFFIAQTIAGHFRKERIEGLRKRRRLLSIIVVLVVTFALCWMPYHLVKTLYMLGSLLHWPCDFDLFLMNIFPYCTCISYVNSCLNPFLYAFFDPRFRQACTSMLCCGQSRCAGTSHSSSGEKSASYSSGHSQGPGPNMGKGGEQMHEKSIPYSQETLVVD
Conditions: read-out: EC50 activating the APJ receptor; cited from earlier work

## apelin-36: bioactive peptide of 36 amino acids processed from the apelin pre-proprotein (LVQPRGSRNGPGPWQGGRRKFRRQRPRLSHKGPMPF; Apelin-36; UniProt Q9ULZ1 42-77, looked up)
  EC50: 20 nM
